From patent publication US3996344A, “Phenethylamine antigenic conjugates, their preparation, antibodies and use” (Biological Developments, Inc., priority 1974, dated 1976)

Test system: antiserum (to the material produced according to Example 2b, p-succinyl-amphetamine coupled to thyroglobulin)
Test: Radioimmune assay: inhibition of 3H-d-amphetamine binding to, and cross-reactivity of, antiserum to the material produced according to Example 2b
Settings: antiserum to Example 2b material; for Percent Cross-Reactivity: method of Abraham, relative quantity that produces 50% inhibition x 100, d-amphetamine = 100

| SMILES | Percent Cross-Reactivity | Percent Inhibition of Binding 3H-d-amphetamine (10 picograms of unlabeled amphetamine) | Percent Inhibition of Binding 3H-d-amphetamine (100 picograms of unlabeled amphetamine) | Percent Inhibition of Binding 3H-d-amphetamine (1,000 picograms of unlabeled amphetamine) | Percent Inhibition of Binding 3H-d-amphetamine (10,000 picograms of unlabeled amphetamine) |
| --- | --- | --- | --- | --- | --- |
| CN[C@@H](C)Cc1ccccc1 [methadrine] | 3.3% |  |  |  |  |
| C[C@@H](N)Cc1ccccc1 [1-amphetamine] | 3.8% |  |  |  |  |
| C[C@H](N)Cc1ccccc1 [d-amphetamine] | 100% | 13% | 27% | 37% | 65% |
